Literature values as cited in patent US9796990B2 (priority 2011, dated 2017).

Experiments:
[1] = system: Bluegill (Lepomis macrochirus); details: in vivo; cited from earlier work
[2] = system: aquatic and terrestrial biota; details: in vivo; cited from earlier work

SMILES: Oc1nc(Cl)c(Cl)cc1Cl [TCP, 3,5,6 trichloropyridin-2-ol]
- toxicity compared with the parent compound chlorpyriphos [1]: considerably less toxic than the parent compound
- toxicity to aquatic and terrestrial biota [2]: low to moderate toxicity
